## Ab-95 light chain CDR variants: yeast mating affinities

Reference: Engelhart et al. 2022, doi:10.1038/s41597-022-01779-4. File: FLAb, binding data.

Target peptide (SARS-CoV-2 spike, HR2 region): PDVDLGDISGINAS

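Phage display of a naive human antibody library on the peptide gave the parent. Library AAYL52 holds single substitutions and randomly drawn double and triple substitutions in the CDRs. The scFvs were displayed on barcoded MATa yeast, the peptide on MATalpha yeast. Binding brings cells together so that they mate, and sequencing counts the barcode pairs among the diploids. Scores were corrected for input abundance and mapped to Kd with protein pairs of known affinity run in the same pool. Mating was done three times.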

Parent: Ab-95, a human scFv built as VH, a (GGGGS)3 linker, VL. Only the CDRs of the light chain vary.
VH: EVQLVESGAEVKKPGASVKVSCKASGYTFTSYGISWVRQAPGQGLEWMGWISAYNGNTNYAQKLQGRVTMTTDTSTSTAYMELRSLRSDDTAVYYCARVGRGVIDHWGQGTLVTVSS
VL: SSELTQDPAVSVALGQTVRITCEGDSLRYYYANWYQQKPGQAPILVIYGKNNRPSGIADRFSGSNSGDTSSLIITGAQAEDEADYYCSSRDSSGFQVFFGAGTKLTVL

Changes read parent residue, position, new residue, counted from the first residue of the VL shown.
These are single substitutions, in order of position.
Numbers give log10(Kd / nM), so 0 is 1 nM and 3 is 1 µM. Smaller is tighter.
"nd" means that the variant was in the library but no mating with the target was seen in that replicate; the authors take this as a sign of poor binding, and no number exists.
Parent in this assay: reference entry 2.31, copy in this library 2.25.

| # | changes | replicates, log10 nM |
|---|---|---|
| 1 | N33Q | 4.16 3.33 3.81 |
| 2 | G49A | 3.12 2.56 3.30 |
| 3 | G49S | 3.69 3.08 3.03 |
| 4 | G49K | nd nd 4.25 |
| 5 | G49M | 4.18 nd nd |
| 6 | G49P | 4.05 3.55 nd |
| 7 | G49E | 3.11 2.72 3.23 |
| 8 | G49W | 2.81 nd nd |
| 9 | G49I | 4.30 nd 4.50 |
| 10 | G49Q | 3.75 4.68 3.38 |
| 11 | G49H | 3.42 3.04 4.22 |
| 12 | G49Y | 3.50 2.90 3.76 |
| 13 | G49T | nd nd nd |
| 14 | G49R | nd nd nd |
| 15 | G49D | 2.66 3.24 3.20 |
| 16 | G49N | 2.72 2.69 2.70 |
| 17 | G49V | 4.98 4.49 nd |
| 18 | G49F | 4.55 4.99 nd |
| 19 | G49L | 3.73 nd nd |
| 20 | K50A | 2.01 2.33 1.94 |
| 21 | K50E | 1.72 1.44 1.16 |
| 22 | K50F | 3.07 3.02 2.97 |
| 23 | K50H | 2.43 2.18 1.92 |
| 24 | K50I | 3.05 2.79 2.62 |
| 25 | K50V | 3.40 3.23 1.72 |
| 26 | K50Q | 1.59 1.83 1.34 |
| 27 | K50T | 2.06 2.07 2.12 |
| 28 | K50S | 2.49 2.79 2.15 |
| 29 | K50N | 2.14 1.86 1.60 |
| 30 | K50D | 1.44 1.76 1.23 |
| 31 | K50W | 2.92 2.62 2.25 |

Excerpt, the first 5 entries:

| changes | replicates, log10 nM |
|---|---|
| N33Q | 4.16 3.33 3.81 |
| G49A | 3.12 2.56 3.30 |
| G49S | 3.69 3.08 3.03 |
| G49K | nd nd 4.25 |
| G49M | 4.18 nd nd |

Three control strains display no target. For library AAYL52, 28% of the pairings with them gave a signal, with a median of 3.91 and one signal in twenty below 2.90, so weak values seen in few replicates may be background.